Test results as given in PubChem BioAssay AID727 (The Scripps Research Institute Molecular Screening Center, 2007).
This is a selection; strong and weak results do not stand in their true shares. Activity calls are given as the source filed them. Cut-off read from the data, not from the text of the source: active = inhibition above about 19%; inactive = the rest.

Chains of the proteins cited; added tags and fusions are not shown.
UniProt Q05397, whole entry: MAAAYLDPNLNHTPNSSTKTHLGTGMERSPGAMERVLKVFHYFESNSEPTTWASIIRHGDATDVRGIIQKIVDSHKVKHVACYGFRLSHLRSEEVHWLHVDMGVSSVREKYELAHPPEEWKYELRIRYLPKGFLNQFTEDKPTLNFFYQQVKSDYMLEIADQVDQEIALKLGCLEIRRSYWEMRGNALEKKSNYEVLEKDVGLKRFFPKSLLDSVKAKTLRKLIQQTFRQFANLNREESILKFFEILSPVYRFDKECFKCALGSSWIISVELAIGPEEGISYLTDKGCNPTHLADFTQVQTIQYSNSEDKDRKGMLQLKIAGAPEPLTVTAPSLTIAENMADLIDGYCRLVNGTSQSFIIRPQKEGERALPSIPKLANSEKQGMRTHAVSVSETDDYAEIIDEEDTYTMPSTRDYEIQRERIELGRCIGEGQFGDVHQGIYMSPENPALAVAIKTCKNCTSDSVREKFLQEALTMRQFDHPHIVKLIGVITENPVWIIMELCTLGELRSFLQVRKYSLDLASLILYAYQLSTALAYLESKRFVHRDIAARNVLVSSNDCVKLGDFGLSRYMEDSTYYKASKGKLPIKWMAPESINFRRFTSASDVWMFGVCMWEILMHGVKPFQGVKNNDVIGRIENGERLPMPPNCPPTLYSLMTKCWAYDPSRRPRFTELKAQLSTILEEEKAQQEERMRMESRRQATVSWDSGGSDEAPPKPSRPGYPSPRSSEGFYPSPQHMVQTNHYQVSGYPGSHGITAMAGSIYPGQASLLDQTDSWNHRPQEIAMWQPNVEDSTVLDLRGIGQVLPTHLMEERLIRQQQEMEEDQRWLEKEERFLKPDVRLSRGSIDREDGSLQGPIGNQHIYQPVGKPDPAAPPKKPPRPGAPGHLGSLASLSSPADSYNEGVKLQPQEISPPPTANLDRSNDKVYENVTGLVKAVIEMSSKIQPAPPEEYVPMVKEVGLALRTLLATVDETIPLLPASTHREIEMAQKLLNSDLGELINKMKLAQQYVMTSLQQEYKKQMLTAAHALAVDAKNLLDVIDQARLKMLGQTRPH

Target: Focal adhesion kinase 1 (Homo sapiens) (UniProt Q05397)
Assay: human PTK2 enzyme activity blockers – biochemical, primary screen (AID 727);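 note: 0% = DMSO and 100% = reference compound high control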
Details: biochemical FAK kinase activity assay; active compounds read high;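 tested at 7 µM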

Compound | inhibition
c1ccc(CN2CCC(Nc3ccccc3)CC2)cc1 | inactive: 0.54%
N/C(=N\O)c1c(N)no[n+]1[O-] | inactive: 3.01%
CCOc1ncccc1C(=O)NCC1(N2CCOCC2)CCCCC1 | inactive: 4.35%
CCC(CO)(C(=O)OC1CN2CCC1CC2)c1ccccc1 (stereo not given) | inactive: 6.03%
COc1ccc(NC2CCN(CCc3ccccc3)CC2)c(OC)c1 | inactive: 3.73%
O=C(NCC1(N2CCOCC2)CCCCC1)c1cc2ccccc2o1 | inactive: 1.99%
O=C(OC1CN2CCC1CC2)C1c2ccccc2Oc2ccccc21 (stereo not given) | inactive: 4.47%
CN1CCC(Nc2cccc(F)c2)CC1 | inactive: 3.59%
N#CC1(Nc2ccccc2)CCN(CCc2ccccc2)CC1 | inactive: -0.45%
O=C(NCC1(N2CCOCC2)CCCCC1)c1cc(=O)[nH]c2ccccc12 | inactive: -0.56%
